Measurements from patent US8206621B2, “Use of ethanol as plasticizer for preparing subcutaneous implants containing thermolabile active principles dispersed in a PLGA matrix” (Mediolanum Pharmaceuticals Ltd., priority 2003, dated 2012).

Assay: Biological potency of Interferon alfa-2a (monograph Interferon alfa-2 Concentrated solution Nr 1110, European Pharmacopoeia 4th Edition)
Conditions: according to monograph Interferon alfa-2 Concentrated solution; active principle before extrusion

Interferon alfa-2a: protein Interferon alfa-2a, active principle with excipients
Biological potency: 2.3×10^8 IU/mg of protein
